Laboratory results reported in US11124497B1, “Inhibitors of cysteine proteases and methods of use thereof” (priority 2020, dated 2021).

Amino acid sequences for entries named in this document (tags omitted). Residues count along the entry.
UniProt P0C6X1, 2966-3267 limits assumed: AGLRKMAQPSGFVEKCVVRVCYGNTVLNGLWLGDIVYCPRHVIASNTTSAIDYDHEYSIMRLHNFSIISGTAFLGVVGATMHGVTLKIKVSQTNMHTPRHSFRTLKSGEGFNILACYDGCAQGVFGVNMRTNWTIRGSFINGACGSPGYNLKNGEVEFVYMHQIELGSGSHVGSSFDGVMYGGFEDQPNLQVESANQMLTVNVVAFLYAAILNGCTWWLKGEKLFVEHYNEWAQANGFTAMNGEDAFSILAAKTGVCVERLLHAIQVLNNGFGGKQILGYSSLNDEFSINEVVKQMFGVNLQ

Molecular target: 229E mPRO (Human coronavirus 229E (HCoV-229E), UniProt P0C6X1)
Experiment: 229E mPRO enzymatic assay
Type: biochemical, Human Coronavirus (HCov) 229E

Structure (SMILES): N#C[C@H](C[C@@H]1CCNC1=O)NC(=O)[C@H](CC1CC1)NC(=O)c1nc2ccncc2[nH]1 [Compound 129, N-[(1S)-2-[[(1S)-1-cyano-2-[(3S)-2-oxopyrrolidin-3-yl]ethyl]amino]-1-(cyclopropylmethyl)-2-oxo-ethyl]-3H-imidazo[4,5-c]pyridine-2-carboxamide]
- IC50: 2 to 10 µM
